Type: in vivo
Conditions: Dutch Belted, rabbit, choroid/BrM/RPE, po, 15 mg/kg

Tmax: 1 h
Compound: CC(=O)c1nn(CC(=O)N2C[C@H](F)C[C@H]2C(=O)Nc2cccc(Br)n2)c2ccc(-c3cnc(C)nc3)cc12 [Danicopan]

From article PMC9624268 (Translational Vision Science & Technology, 2022)
